These molecules were tested on SARS-CoV-2 (strain USA-WA1/2020) (assay: SARS-CoV-2/Huh7.5 screening assay (nucleocapsid immunostaining, percentage of infected cells)). Conditions: Huh7.5 cells, SARS-CoV-2 infection, 24 h.
With Cc1c(S(=O)(=O)c2cc(F)c3[nH]ncc3c2)cc(C(=O)N[C@@H](C)c2cccc3cnn(C4CC4)c23)n1C (single isomer, unassigned) [B.87] the IC50 was 280 nM. Cc1cc(S(=O)(=O)c2cc(C(=O)NCc3c(F)ccc4occc34)n(C)c2C)cc2cn[nH]c12 [A.1, N-[(5-fluorobenzofuran-4-yl)methyl]-1,5-dimethyl-4-[(7-methyl-1H-indazol-5-yl)sulfonyl]pyrrole-2-carboxamide] gave an IC50 of 5 nM. Cc1c(S(=O)(=O)c2ccc3[nH]ncc3c2)cc(C(=O)NCc2c(F)ccc3occc23)n1C [A.2] showed an IC50 of 17 nM. For Cc1c(S(=O)(=O)c2ccc3[nH]ncc3c2)cc(C(=O)NCc2cccc3cnn(C)c23)n1C [A.3], the IC50 was 68 nM. Cc1c(S(=O)(=O)c2ccc3c(cnn3C)c2)cc(C(=O)NCc2c(F)ccc3ncn(C4CC4)c23)n1C [A.4, N-[(3-cyclopropyl-5-fluoro-benzimidazol-4-yl)methyl]-1,5-dimethyl-4-(1-methylindazol-5-yl)sulfonyl-pyrrole-2-carboxamide] gave an IC50 of 76 nM. Cc1c(S(=O)(=O)c2ccc3[nH]ncc3c2)cc(C(=O)NCc2cccc3cnn(C4CC4)c23)n1C [A.5] gave an IC50 of 210 nM. In the case of Cc1c(S(=O)(=O)c2cccc(C#N)c2)cc(C(=O)NCc2cccc3cnn(C)c23)n1C [A.6, 4-(3-cyanophenyl)sulfonyl-1,5-dimethyl-N-[(1-methylindazol-7-yl)methyl]pyrrole-2-carboxamide], the IC50 is reported as 230 nM. Work on Cc1c(S(=O)(=O)c2ccc3occc3c2)cc(C(=O)NCc2cccc3cnn(C)c23)n1C [A.8] yielded an IC50 of 490 nM. Cc1c(S(=O)(=O)c2ccc3[nH]ncc3c2)cc(C(=O)N[C@@H]2CCN(c3ncc(F)cn3)C2)n1C [A.34, N-[(3R)-1-(5-fluoropyrimidin-2-yl)pyrrolidin-3-yl]-4-(1H-indazol-5-ylsulfonyl)-1,5-dimethyl-pyrrole-2-carboxamide] showed an IC50 of 21 nM. In the case of Cc1c(S(=O)(=O)c2ccc3[nH]ncc3c2)cc(C(=O)NC2CCN(c3ncc(F)cn3)CC2)n1C [A.35], the IC50 is reported as 480 nM. Work on Cc1c(S(=O)(=O)c2ccc3[nH]ncc3c2)cc(C(=O)N[C@@H]2CCN(c3ncccc3C#N)C2)n1C [A.37] yielded an IC50 of 58 nM. For Cc1c(S(=O)(=O)c2ccc3[nH]ncc3c2)cc(C(=O)NC2CN(c3ncc(F)cn3)C[C@@H]2F)n1C (stereo partly shown) [A.46], the IC50 was 80 nM. With Cc1c(S(=O)(=O)c2ccc3[nH]ncc3c2)cc(C(=O)N[C@@H]2CCN(c3ncc(F)cc3F)C2)n1C [A.54] the IC50 was 3 nM. Cc1c(S(=O)(=O)c2ccc3[nH]ncc3c2)cc(C(=O)N[C@@H]2CCN(c3cccc4ccnn34)C2)n1C [A.55] showed an IC50 of 430 nM. For Cc1c(S(=O)(=O)c2ccc3[nH]ncc3c2)cc(C(=O)N[C@@H]2CCN(c3ccc(C#N)cc3)C2)n1C [A.57], the IC50 was 180 nM. Work on Cc1c(S(=O)(=O)c2ccc3[nH]ncc3c2)cc(C(=O)N[C@@H]2CCN(c3cccn4nccc34)C2)n1C [A.59] yielded an IC50 of 210 nM. In the case of Cc1c(S(=O)(=O)c2ccc3[nH]ncc3c2)cc(C(=O)N[C@@H]2CCN(c3ccn4nccc4c3)C2)n1C [A.60], the IC50 is reported as 350 nM. Cc1c(S(=O)(=O)c2ccc3[nH]ncc3c2)cc(C(=O)N[C@@H]2CCN(c3cccc4c3cnn4C)C2)n1C [A.61] gave an IC50 of 120 nM. Work on Cc1c(S(=O)(=O)c2ccc3[nH]ncc3c2)cc(C(=O)N[C@@H]2CCN(c3nccc(C(F)(F)F)n3)C2)n1C [A.66] yielded an IC50 of 120 nM. Cc1c(S(=O)(=O)c2ccc3[nH]ncc3c2)cc(C(=O)N[C@@H]2CCN(c3ccc(C#N)cn3)C2)n1C [A.72] gave an IC50 of 110 nM. Cc1c(S(=O)(=O)c2ccc3[nH]ncc3c2)cc(C(=O)N[C@@H]2CCN(c3cncnc3)C2)n1C [A.73] was tested, and the IC50 was 93 nM. Cc1c(S(=O)(=O)c2ccc3[nH]ncc3c2)cc(C(=O)N[C@@H]2CCN(c3cc(C#N)ccn3)C2)n1C [A.79] gave an IC50 of 400 nM. Work on Cc1c(S(=O)(=O)c2ccc3[nH]ncc3c2)cc(C(=O)N[C@@H]2CCN(c3ccc(F)cc3C#N)C2)n1C [A.82] yielded an IC50 of 71 nM. Work on COc1ccc(N2CC[C@@H](NC(=O)c3cc(S(=O)(=O)c4ccc5[nH]ncc5c4)c(C)n3C)C2)nn1 [A.88] yielded an IC50 of 350 nM. For Cc1c(S(=O)(=O)c2ccc3[nH]ncc3c2)cc(C(=O)N[C@@H]2CCN(c3ncc(F)cn3)C2)n1CCO [A.90], the IC50 was 350 nM. For Cc1c(S(=O)(=O)c2ccc3[nH]ncc3c2)cc(C(=O)N[C@@H]2CCN(c3cnccc3C#N)C2)n1C [A.95], the IC50 was 100 nM. Molecule Cc1c(S(=O)(=O)c2cccc(C#N)c2)cc(C(=O)NCc2c(F)ccc3cnn(C)c23)n1C [B.2] has an IC50 of 52 nM. Cc1c(S(=O)(=O)c2ccc3[nH]nc(F)c3c2)cc(C(=O)NCc2cccc3cnn(C)c23)n1C [B.12] gave an IC50 of 38 nM. Molecule Cc1c(S(=O)(=O)c2ccc3[nH]ncc3c2)cc(C(=O)NCc2cccc3c2N(C)C(=O)C3)n1C [B.13] has an IC50 of 56 nM. For Cc1c(S(=O)(=O)c2ccc3[nH]ncc3c2)cc(C(=O)NCc2c(F)ccc3cnn(C4CC4)c23)n1C [B.16], the IC50 was 2 nM. For Cc1c(S(=O)(=O)c2ccc3[nH]ncc3c2)cc(C(=O)NCc2c(F)ccc3ncn(C4CC4)c23)n1C [B.18], the IC50 was 1.2 nM. Cc1c(S(=O)(=O)c2ccc3[nH]ncc3c2)cc(C(=O)NCc2c(F)cccc2F)n1C [B.22] showed an IC50 of 8.7 nM. With Cc1c(S(=O)(=O)c2ccc3[nH]ncc3c2)cc(C(=O)NCc2nccc3cnn(C)c23)n1C [B.24] the IC50 was 287 nM. Cc1c(S(=O)(=O)c2ccc3[nH]ncc3c2)cc(C(=O)NCc2cccc3c2CCC(=O)N3C)n1C [B.25] was tested, and the IC50 was 57 nM. Cc1cc(S(=O)(=O)c2cc(C(=O)NCc3c(F)ccc4ncn(C5CC5)c34)n(C)c2C)cc2cn[nH]c12 [B.27] was tested, and the IC50 was 26 nM. Cc1c(S(=O)(=O)c2ccc3[nH]ncc3c2)cc(C(=O)NCc2cccc3c2N(C)C(=O)C32CC2)n1C [B.32] gave an IC50 of 33 nM. Cc1c(S(=O)(=O)c2ccc3[nH]ncc3c2)cc(C(=O)NCc2cccc3c2ccc(=O)n3C)n1C [B.33] was tested, and the IC50 was 260 nM. In the case of Cc1c(S(=O)(=O)c2ccc3[nH]ncc3c2)cc(C(=O)NCc2cccc3nnn(C)c23)n1C [B.34], the IC50 is reported as 64 nM. Molecule Cc1c(S(=O)(=O)c2ccc3[nH]ncc3c2)cc(C(=O)NCc2c(F)ccc3nnn(C)c23)n1C [B.43] has an IC50 of 6.4 nM. For Cc1c(S(=O)(=O)c2ccc3[nH]ncc3c2)cc(C(=O)NCc2cncc3cnn(C)c23)n1C [B.49], the IC50 was 57 nM. For Cc1c(S(=O)(=O)c2cc(Cl)c3[nH]ncc3c2)cc(C(=O)NCc2cccc3cnn(C4CC4)c23)n1C [B.51], the IC50 was 13 nM. With Cc1c(S(=O)(=O)c2ccc3[nH]ncc3c2)cc(C(=O)NCc2c(F)ccc3c2N(C)C(=O)C3)n1C [B.52] the IC50 was 8.2 nM. Cc1c(S(=O)(=O)c2cc(F)c3[nH]ncc3c2)cc(C(=O)NCc2c(F)ccc3cnn(C4CC4)c23)n1C [B.63] showed an IC50 of 6.8 nM. Molecule Cc1c(S(=O)(=O)c2ccc3[nH]ncc3c2)cc(C(=O)NCc2cccc3nnn(C4CC4)c23)n1C [B.66] has an IC50 of 150 nM. Molecule Cc1c(S(=O)(=O)c2ccc3[nH]ncc3c2)cc(C(=O)NCc2c(F)ccc3nnn(C4CC4)c23)n1C [B.81] has an IC50 of 13 nM. Cc1c(S(=O)(=O)c2cc(F)c3[nH]ncc3c2)cc(C(=O)NCc2c(F)ccc3cnn(C4CC4)c23)n1CCO [B.89] showed an IC50 of 62 nM. For Cc1c(S(=O)(=O)c2cc(Cl)c3[nH]ncc3c2)cc(C(=O)NCc2ccnn2C)n1C [B.134], the IC50 was 350 nM. Work on Cc1c(S(=O)(=O)c2ccc3c(=O)[nH]ccc3c2)cc(C(=O)NCc2c(F)ccc3cnn(C4CC4)c23)n1C [B.136] yielded an IC50 of 84 nM. In the case of Cc1c(S(=O)(=O)c2ccc3[nH]ncc3c2)cc(C(=O)NCc2c(Cl)cnn2C)n1C [B.142], the IC50 is reported as 190 nM. Molecule Cc1c(S(=O)(=O)c2ccc3[nH]ncc3c2Cl)cc(C(=O)NCc2c(F)ccc3c2N(C)C(=O)C32CC2)n1C [B.143] has an IC50 of 24 nM. Cc1c(S(=O)(=O)c2ccc3[nH]ncc3c2)cc(C(=O)NCc2c(F)ccc3c2N(C)C(=O)C32CC2)n1C [B.145] gave an IC50 of 5.6 nM. O=C(O)CCn1ncc2ccc(F)c(CNC(=O)c3cc(S(=O)(=O)c4cc(Cl)c5[nH]ncc5c4)c4n3CCC4)c21 [B.151] was tested, and the IC50 was 250 nM. With Cc1c(S(=O)(=O)c2cc(Cl)c3[nH]ncc3c2)cc(C(=O)NCc2c(F)ccc3nnn(C4CC4)c23)n1C [B.153] the IC50 was 4.2 nM. For Cc1c(S(=O)(=O)c2ccc3[nH]ncc3c2)cc(C(=O)NCc2c(Cl)ccc(=O)n2C)n1C [B.174], the IC50 was 100 nM. Cc1c(S(=O)(=O)c2ccc3[nH]ncc3c2)cc(C(=O)NCc2c(F)ccc(=O)n2C)n1C [B.179] gave an IC50 of 220 nM.

Reference: patent US20260226034A1 (The Rockefeller University, priority 2023, published 2026)
